Key:
[1] = target: T1, 5-HT7R (Homo sapiens, UniProt P34969); conditions: literature: Mahe et al. 2004; Thomas et al. 1998; cited from earlier work
[2] = target: T1, 5-HT7R; experiment: 5-HT7R-induced Tau aggregation in HEK293 Tau-BiFC cells; format: cell-based; set-up: HA (N); expressed in transfected cells; host or cells: N1E-115 (neuroblastoma cells); conditions: HEK293 Tau-BiFC cells transfected with CFP-5-HT7R; maximum intensity projections

Amino acid sequences for entries named in this document (tags omitted). Residues count along the entry.
UniProt P34969, 1-445 isoform P34969-2: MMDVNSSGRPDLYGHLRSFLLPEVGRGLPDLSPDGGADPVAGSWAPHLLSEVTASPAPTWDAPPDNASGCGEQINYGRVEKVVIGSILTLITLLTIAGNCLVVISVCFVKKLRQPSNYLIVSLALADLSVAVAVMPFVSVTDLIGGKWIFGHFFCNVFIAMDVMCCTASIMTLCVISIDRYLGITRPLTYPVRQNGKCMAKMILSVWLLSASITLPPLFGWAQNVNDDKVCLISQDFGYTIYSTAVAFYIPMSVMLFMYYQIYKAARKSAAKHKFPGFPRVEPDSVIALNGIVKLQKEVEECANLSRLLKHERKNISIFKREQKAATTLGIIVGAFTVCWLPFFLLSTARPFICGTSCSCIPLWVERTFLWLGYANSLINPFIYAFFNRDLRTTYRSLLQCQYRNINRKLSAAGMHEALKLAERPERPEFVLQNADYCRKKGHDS
UniProt P34969, whole entry: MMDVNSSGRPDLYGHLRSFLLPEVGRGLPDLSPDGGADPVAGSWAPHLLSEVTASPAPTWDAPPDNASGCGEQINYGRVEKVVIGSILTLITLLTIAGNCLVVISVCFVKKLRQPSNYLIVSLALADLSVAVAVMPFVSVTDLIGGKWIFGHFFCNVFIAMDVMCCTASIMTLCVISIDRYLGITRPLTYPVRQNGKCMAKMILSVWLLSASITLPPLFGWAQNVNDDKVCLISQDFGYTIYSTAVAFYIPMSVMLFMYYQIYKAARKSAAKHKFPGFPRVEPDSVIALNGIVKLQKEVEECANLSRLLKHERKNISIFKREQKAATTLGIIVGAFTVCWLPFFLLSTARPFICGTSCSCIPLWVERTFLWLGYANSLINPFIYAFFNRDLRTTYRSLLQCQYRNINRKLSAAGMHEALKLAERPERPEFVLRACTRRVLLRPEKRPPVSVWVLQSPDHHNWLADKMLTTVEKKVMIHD

- Tangles of Venus-Tau (VN-Tau) in 5-HT7R-transfected cells [2]: disappeared
Structure (SMILES): CC1CCN(CC[C@H]2CCCN2S(=O)(=O)c2cccc(O)c2)CC1 [SB-269970]
- mode of action at 5-HT7R [1]: 5-HT7R antagonist with full inverse agonist properties

From patent publication US20220023257A1, “TREATMENT OF DEMENTIA-ASSOCIATED TAUOPATHIES” (Medizinische Hochschule Hannover (MHH), priority 2018, published 2022)
